Experimental data reported in patent US11161831B2, “Methods and compositions for treatment of muscle wasting, muscle weakness, and/or cachexia” (Baylor College of Medicine, priority 2013, dated 2021).

The chains behind the UniProt entries cited, without tags or fusion partners. Residues count along the entry.
UniProt P40763, 2-770 limits assumed: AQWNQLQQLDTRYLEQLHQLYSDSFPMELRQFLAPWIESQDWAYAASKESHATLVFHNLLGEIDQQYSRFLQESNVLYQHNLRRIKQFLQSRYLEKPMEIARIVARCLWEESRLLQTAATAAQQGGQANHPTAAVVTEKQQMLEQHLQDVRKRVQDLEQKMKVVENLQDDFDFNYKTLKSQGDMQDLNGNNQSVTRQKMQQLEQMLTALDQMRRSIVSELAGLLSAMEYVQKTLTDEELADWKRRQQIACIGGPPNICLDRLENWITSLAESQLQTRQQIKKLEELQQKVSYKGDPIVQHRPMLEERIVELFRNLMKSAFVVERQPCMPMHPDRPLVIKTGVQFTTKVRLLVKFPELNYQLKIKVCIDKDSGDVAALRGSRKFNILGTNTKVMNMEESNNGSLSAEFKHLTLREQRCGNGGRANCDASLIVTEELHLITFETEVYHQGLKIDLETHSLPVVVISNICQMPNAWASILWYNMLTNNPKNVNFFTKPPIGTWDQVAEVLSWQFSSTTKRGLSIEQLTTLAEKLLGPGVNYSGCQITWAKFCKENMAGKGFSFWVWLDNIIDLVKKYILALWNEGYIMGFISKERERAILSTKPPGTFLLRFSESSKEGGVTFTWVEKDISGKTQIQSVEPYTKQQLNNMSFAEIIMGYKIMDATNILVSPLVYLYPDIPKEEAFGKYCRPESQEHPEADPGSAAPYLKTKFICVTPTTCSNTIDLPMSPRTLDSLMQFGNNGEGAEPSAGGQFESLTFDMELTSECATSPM

Target: T1, Stat3:hSIE complexes (Homo sapiens, UniProt P40763)
T1 construct: endogenous in cells; host or cells: HepG2
Test: Electrophoretic mobility shift assay (EMSA), Stat3 binding to hSIE duplex oligonucleotide
Type: biochemical
Conditions: extracts of IL-6-stimulated HepG2 cells, compound 300 µM
Description: Electrophoretic mobility shift assays were performed using whole-cell extracts prepared from HepG2 cells without and with stimulation with IL-6 (30 ng/ml) for 30 min. Protein (20 μg) was incubated with radiolabeled duplex oligonucleotide (hSIE) and DMSO without or with the indicated compounds (300 uM) for 60 minutes at 37° C. then separated by PAGE. The gel was dried and autoradiographed; the portion of the gel corresponding to the Stat3-bound hSIE band is shown. Data shown are representative of 2 studies.
Electrophoretic Mobility Shift Assay (EMSA): EMSA was performed using the hSIE radiolabeled duplex oligonucleotide as a probe as described (Tweardy et al., 1995). Briefly, high salt extracts were prepared from HepG2 cells incubated without or with IL-6 (30 ng/ml) for 30 minutes. Protein concentration was determined by Bradford Assay and 20 ug of extract was incubated with compound (300 uM) for 60 minutes at 37° C. […] Gels were dried and autoradiographed.
Once in the nucleus, Stat3 dimers bind to specific DNA elements to activate and, in some instances, repress gene transcription. […] Compounds that bind to the phosphopeptide-binding site of Stat3 might be expected to do the same. […]

COC(=O)Cc1c(C)c2ccc(OCc3ccc(C(=O)OC)cc3)c(C)c2oc1=O [Cpd3-7, methyl 4-({[3-(2-methyoxy-2-oxoethyl)-4,8-dimethyl-2-oxo-2H-chromen-7-yl]oxy}methyl)benzoate]
amount of hSIE shifted (Stat3:hSIE band intensity): reduced the amount of hSIE shifted by half or greater
